Measured values taken from PubChem BioAssay (EPA / NIEHS).
The entries are a selection whose mix differs from that of the whole data set. Activity calls are given as the source filed them. The calls were made as follows: active = hit-call score of the fitted dose curve at least 0.9, where 1 is the maximum; inactive = score below 0.9.

The chains behind the UniProt entries cited, without tags or fusion partners. Where a name states a change or a piece, a line headed by the entry shows the natural chain unless it says otherwise.
UniProt P19838: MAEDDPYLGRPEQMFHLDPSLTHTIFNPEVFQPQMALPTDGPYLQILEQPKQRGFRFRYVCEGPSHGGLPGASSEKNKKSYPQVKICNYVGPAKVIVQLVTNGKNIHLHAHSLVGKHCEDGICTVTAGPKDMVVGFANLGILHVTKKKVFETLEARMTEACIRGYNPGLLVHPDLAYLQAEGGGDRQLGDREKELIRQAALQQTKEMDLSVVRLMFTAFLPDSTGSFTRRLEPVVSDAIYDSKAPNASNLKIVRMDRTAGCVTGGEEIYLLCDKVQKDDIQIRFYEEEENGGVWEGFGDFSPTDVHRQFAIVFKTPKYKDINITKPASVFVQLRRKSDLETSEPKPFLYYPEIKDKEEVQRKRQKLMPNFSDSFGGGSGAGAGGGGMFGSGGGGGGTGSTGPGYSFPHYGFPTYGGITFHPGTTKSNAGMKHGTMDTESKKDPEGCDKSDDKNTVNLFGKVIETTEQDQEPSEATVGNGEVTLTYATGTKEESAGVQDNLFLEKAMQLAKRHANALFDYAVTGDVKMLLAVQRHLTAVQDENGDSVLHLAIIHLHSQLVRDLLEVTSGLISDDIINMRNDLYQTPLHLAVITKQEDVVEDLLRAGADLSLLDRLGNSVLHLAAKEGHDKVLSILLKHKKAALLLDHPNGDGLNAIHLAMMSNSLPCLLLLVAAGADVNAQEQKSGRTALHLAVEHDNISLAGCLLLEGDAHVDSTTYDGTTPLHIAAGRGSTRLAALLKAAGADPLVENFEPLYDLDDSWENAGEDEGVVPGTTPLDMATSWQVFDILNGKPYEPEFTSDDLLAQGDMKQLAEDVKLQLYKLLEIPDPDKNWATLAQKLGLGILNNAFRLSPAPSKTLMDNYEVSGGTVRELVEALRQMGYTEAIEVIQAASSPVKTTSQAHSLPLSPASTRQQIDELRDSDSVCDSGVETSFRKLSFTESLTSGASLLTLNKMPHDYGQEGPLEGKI
UniProt Q16236, whole entry, looked up: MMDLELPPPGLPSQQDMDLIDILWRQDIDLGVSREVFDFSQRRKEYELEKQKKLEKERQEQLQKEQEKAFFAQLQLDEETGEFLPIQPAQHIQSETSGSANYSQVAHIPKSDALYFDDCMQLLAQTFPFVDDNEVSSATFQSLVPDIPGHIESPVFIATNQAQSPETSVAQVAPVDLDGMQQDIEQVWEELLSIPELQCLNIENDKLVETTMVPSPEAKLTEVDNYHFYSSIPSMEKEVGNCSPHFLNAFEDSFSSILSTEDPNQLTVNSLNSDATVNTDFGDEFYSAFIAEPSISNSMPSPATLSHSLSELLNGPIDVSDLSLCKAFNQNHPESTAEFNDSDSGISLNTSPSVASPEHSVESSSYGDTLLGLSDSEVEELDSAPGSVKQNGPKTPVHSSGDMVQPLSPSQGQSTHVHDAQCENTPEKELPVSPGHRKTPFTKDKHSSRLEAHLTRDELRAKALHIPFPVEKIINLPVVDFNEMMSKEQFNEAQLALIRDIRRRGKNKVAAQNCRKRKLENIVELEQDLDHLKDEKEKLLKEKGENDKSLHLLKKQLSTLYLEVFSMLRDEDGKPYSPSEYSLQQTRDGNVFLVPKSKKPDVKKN
UniProt P40763, whole entry, looked up: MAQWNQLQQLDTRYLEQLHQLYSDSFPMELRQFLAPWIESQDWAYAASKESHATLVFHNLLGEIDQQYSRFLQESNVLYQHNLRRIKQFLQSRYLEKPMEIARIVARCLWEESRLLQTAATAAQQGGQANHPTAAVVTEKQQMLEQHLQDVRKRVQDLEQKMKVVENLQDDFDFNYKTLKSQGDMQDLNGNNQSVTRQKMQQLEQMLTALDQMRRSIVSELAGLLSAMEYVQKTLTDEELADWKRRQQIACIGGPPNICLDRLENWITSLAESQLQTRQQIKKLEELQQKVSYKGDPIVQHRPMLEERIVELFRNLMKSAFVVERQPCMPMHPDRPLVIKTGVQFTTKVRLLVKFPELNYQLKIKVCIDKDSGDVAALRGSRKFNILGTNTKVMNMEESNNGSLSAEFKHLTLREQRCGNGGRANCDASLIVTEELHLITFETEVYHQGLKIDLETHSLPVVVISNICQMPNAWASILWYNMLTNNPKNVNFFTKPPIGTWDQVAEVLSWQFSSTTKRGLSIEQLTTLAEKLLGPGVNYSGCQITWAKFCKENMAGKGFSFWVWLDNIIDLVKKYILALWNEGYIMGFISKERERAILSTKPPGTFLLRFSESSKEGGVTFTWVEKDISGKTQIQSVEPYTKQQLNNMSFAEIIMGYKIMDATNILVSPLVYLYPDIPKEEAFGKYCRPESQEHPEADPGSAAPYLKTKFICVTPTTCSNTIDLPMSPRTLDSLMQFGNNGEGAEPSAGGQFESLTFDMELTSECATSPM
UniProt P04637, whole entry, looked up: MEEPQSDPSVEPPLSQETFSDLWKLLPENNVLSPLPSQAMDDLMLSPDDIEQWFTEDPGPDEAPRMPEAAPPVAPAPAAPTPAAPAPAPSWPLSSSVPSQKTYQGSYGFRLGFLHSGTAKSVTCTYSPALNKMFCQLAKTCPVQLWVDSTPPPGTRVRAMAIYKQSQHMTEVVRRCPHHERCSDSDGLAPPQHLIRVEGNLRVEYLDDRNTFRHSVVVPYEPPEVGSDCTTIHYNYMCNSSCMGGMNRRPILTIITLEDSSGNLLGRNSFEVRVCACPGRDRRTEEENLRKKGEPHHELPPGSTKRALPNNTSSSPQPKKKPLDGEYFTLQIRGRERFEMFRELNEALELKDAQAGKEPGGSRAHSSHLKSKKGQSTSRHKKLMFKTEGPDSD

Key:
Conditions in all cases: actives raise or lower the signal; mRNA level, 48 h
[1] = read-out: Nuclear factor NF-kappa-B p105 subunit (Homo sapiens) (UniProt P19838); assay: LTEA_HepaRG_NFKB1: Life Technologies and Expression Analysis (LTEA) Assay for Nuclear Factor Kappa B Subunit 1 (NFKB1) using HepaRG (AID 2283521)
Procedure, shortened: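 Differentiated human HepaRG cells in serum-free induction medium with 0.5% DMSO were exposed for 48 h to eight half-log concentrations, top 100 uM, in duplicate. NFKB1 mRNA measured by Fluidigm TaqMan qRT-PCR, normalised to ACTB, GAPDH and POLR2A; bidirectional fit versus DMSO.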

[2] = read-out: Protein phosphatase 2A (PPP2R4), PTPA (gene 5524); assay: LTEA_HepaRG_PPP2R4: Life Technologies and Expression Analysis (LTEA) Assay for Protein phosphatase 2A (PPP2R4) using HepaRG (AID 2283522)
Procedure, shortened: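 HepaRG, 48 h exposure, 8-pt half-log series from 100 uM, 0.5% DMSO vehicle, duplicates. Readout: PPP2R4 mRNA, Fluidigm qRT-PCR, housekeeping-normalized. Bidirectional curve fit vs DMSO baseline.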

[3] = read-out: Phosphatase and tensin (PTEN), PTEN (gene 5728); assay: LTEA_HepaRG_PTEN: Life Technologies and Expression Analysis (LTEA) Assay for Phosphatase and tensin (PTEN) using HepaRG (AID 2283523)
Procedure, shortened: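 Read-out: TaqMan qRT-PCR of PTEN transcript, normalized to three housekeeping genes, fitted in both directions against 0.5% DMSO. Differentiated human HepaRG cultures received chemicals for 48 h, eight-point half-log series topping at 100 uM.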

[4] = read-out: solute carrier (SLC22A1), SLC22A1 (gene 6580); assay: LTEA_HepaRG_SLC22A1: Life Technologies and Expression Analysis (LTEA) Assay for solute carrier (SLC22A1) using HepaRG (AID 2283524)
Procedure, shortened: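 Transcript level of SLC22A1 quantified by qRT-PCR (normalized to three housekeeping genes) after 48 h chemical exposure of HepaRG cells, eight concentrations up to 100 µM, half-log steps, 0.5% DMSO vehicle. Gain or loss relative to DMSO fitted bidirectionally.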

[5] = read-out: Pyruvate Dehydrogenase Kinase 4 (PDK4), PDK4 (gene 5166); assay: LTEA_HepaRG_PDK4: Life Technologies and Expression Analysis (LTEA) Assay for Pyruvate Dehydrogenase Kinase 4 (PDK4) using HepaRG (AID 2283525)
Procedure, shortened: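 Readout is qRT-PCR of PDK4 transcript, normalized to three housekeeping genes, with bidirectional fitting against 0.5% DMSO vehicle. Differentiated HepaRG cells were treated 48 h in serum-free induction medium, duplicate wells, eight-point half-log series topping at 100 uM.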

[6] = read-out: NAD(P)H dehydrogenase [quinone] 1 (NQO1), NQO1 (gene 1728); assay: LTEA_HepaRG_NQO1: Life Technologies and Expression Analysis (LTEA) Assay for NAD(P)H dehydrogenase [quinone] 1 (NQO1) using HepaRG (AID 2283526)
Procedure, shortened: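 qRT-PCR read-out (Fluidigm TaqMan), normalized to three housekeeping genes, after 48 h chemical exposure of HepaRG cells. Concentrations: eight points, top 100 uM, half-log steps, 0.5% DMSO vehicle. Gain or loss of signal fitted relative to DMSO.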

[7] = read-out: Nuclear factor erythroid 2-related factor 2 (Homo sapiens) (UniProt Q16236); assay: LTEA_HepaRG_NFE2L2: Life Technologies and Expression Analysis (LTEA) Assay for Nuclear factor erythroid 2-related factor 2 (NFE2L2) Transcription Factor using HepaRG (AID 2283527)
Procedure, shortened: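 NFE2L2 transcript level was read by qRT-PCR (housekeeping ACTB/GAPDH/POLR2A normalisation) after 48 h chemical treatment of HepaRG in serum-free induction medium. Duplicate 8-point half-log curves, top 100 uM, 0.5% DMSO vehicle; up- or down-regulation fitted against vehicle.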

[8] = read-out: succinate dehydrogenase complex iron sulfur subunit B (SDHB), SDHB (gene 6390); assay: LTEA_HepaRG_SDHB: Life Technologies and Expression Analysis (LTEA) Assay for succinate dehydrogenase complex iron sulfur subunit B (SDHB) using HepaRG (AID 2283528)
Procedure, shortened: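 HepaRG cells (~100,000/well, plated 48 h) exposed in duplicate for 48 h in serum-free induction medium to 8-point half-log series from 100 uM in 0.5% DMSO; mRNA by qRT-PCR normalised to ACTB, GAPDH, POLR2A; bidirectional fit versus DMSO.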

[9] = read-out: Signal transducer and activator of transcription 3 (Homo sapiens) (UniProt P40763); assay: LTEA_HepaRG_STAT3: Life Technologies and Expression Analysis (LTEA) Assay for Signal transducer and activator of transcription (STAT3) using HepaRG (AID 2283529)
Procedure, shortened: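 STAT3 transcript quantified by qRT-PCR against three housekeeping genes (ACTB, GAPDH, POLR2A), fitted both directions relative to DMSO. HepaRG cultures exposed 48 h to eight half-log concentrations, top 100 uM, 0.5% DMSO, serum-free induction medium.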

[10] = read-out: solute carrier (SLCO1B1), SLCO1B1 (gene 10599); assay: LTEA_HepaRG_SLCO1B1: Life Technologies and Expression Analysis (LTEA) Assay for solute carrier (SLCO1B1) using HepaRG (AID 2283530)
Procedure, shortened: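 SLCO1B1 transcript read by qRT-PCR (Fluidigm arrays), normalized to three housekeeping genes, after 48 h chemical exposure of HepaRG cells; bidirectional concentration-response fitting versus 0.5% DMSO baseline. Eight-point half-log series, maximum 100 uM.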

[11] = read-out: sulfotransferase 2A1 (SULT2A1), SULT2A1 (gene 6822); assay: LTEA_HepaRG_SULT2A1: Life Technologies and Expression Analysis (LTEA) Assay for sulfotransferase 2A1 (SULT2A1) using HepaRG (AID 2283531)
Procedure, shortened: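 HepaRG, 48 h chemical exposure, 8-pt half-log curve from 100 uM in 0.5% DMSO, duplicates. Readout: TaqMan qRT-PCR of SULT2A1 mRNA, housekeeping-normalized. Bidirectional fit vs DMSO baseline.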

[12] = read-out: Transforming Growth Factor (TGFA), TGFA (gene 7039); assay: LTEA_HepaRG_TGFA: Life Technologies and Expression Analysis (LTEA) Assay for Transforming Growth Factor (TGFA) using HepaRG (AID 2283532)
Procedure, shortened: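 TGFA transcript quantified by qRT-PCR (Fluidigm arrays) against three housekeeping genes, after 48 hours chemical treatment of HepaRG cells. Top concentration 100 uM with half-log dilutions, 8 points, duplicates, 0.5% DMSO.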

[13] = read-out: Transforming Growth Factor (TGFB1), TGFB1 (gene 7040); assay: LTEA_HepaRG_TGFB1: Life Technologies and Expression Analysis (LTEA) Assay for Transforming Growth Factor (TGFB1) Transporter using HepaRG (AID 2283533)
Procedure, shortened: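 qRT-PCR readout of TGFB1 transcript in HepaRG lysates, normalized to three housekeeping genes; gain or loss of signal fitted relative to 0.5% DMSO vehicle. Exposure: 48 h, 8-point curve from 100 uM, duplicate wells.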

TIMP1, TIMP1 (gene 7076) = assay: LTEA_HepaRG_TIMP1: Life Technologies and Expression Analysis (LTEA) Assay for TIMP1 using HepaRG (AID 2283534)
Procedure, shortened: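 HepaRG, 48 h exposure, 8-pt half-log series from 100 uM in 0.5% DMSO, duplicates; TIMP1 transcript by Fluidigm qRT-PCR, housekeeping-normalized; bidirectional curve fit vs DMSO baseline.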

[14] = read-out: Tumor necrosis factor receptor 1 (TNFRSF1A), TNFRSF1A (gene 7132); assay: LTEA_HepaRG_TNFRSF1A: Life Technologies and Expression Analysis (LTEA) Assay for Tumor necrosis factor receptor 1 (TNFRSF1A) using HepaRG (AID 2283535)
Procedure, shortened: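 HepaRG, 48 h plating then 48 h chemical exposure, serum-free induction media; 8-pt CRC from 100 uM, half-log, 0.5% DMSO vehicle, duplicates. Readout: TaqMan qRT-PCR (Fluidigm), housekeeping-gene normalized; bidirectional fit vs DMSO.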

[15] = read-out: Thyroid Hormone Responsive (THRSP), THRSP (gene 7069); assay: LTEA_HepaRG_THRSP: Life Technologies and Expression Analysis (LTEA) Assay for Thyroid Hormone Responsive (THRSP) using HepaRG (AID 2283536)
Procedure, shortened: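 THRSP transcript quantified by Fluidigm qRT-PCR against three housekeeping genes after 48 h chemical exposure of HepaRG cells in serum-free induction medium; eight-point half-log series, top 100 uM, 0.5% DMSO vehicle, duplicate wells.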

[16] = read-out: Cellular tumor antigen p53 (Homo sapiens) (UniProt P04637); assay: LTEA_HepaRG_TP53: Life Technologies and Expression Analysis (LTEA) Assay for Tumor Protein P53 (TP53) using HepaRG (AID 2283537)
Procedure, shortened: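 Differentiated HepaRG cells in serum-free induction medium exposed 48 h in duplicate to 8 half-log concentrations, top 100 uM, 0.5% DMSO. TP53 mRNA by TaqMan qRT-PCR (Fluidigm), normalized to ACTB, GAPDH, POLR2A; fitted bidirectionally versus DMSO.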

[17] = read-out: UDP glucuronosyltransferase (UGT1A1), UGT1A1 (gene 54658); assay: LTEA_HepaRG_UGT1A1: Life Technologies and Expression Analysis (LTEA) Assay for UDP glucuronosyltransferase (UGT1A1) using HepaRG (AID 2283538)
Procedure, shortened: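 HepaRG, 48 h chemical exposure (top 100 uM, half-log 8-pt, 0.5% DMSO vehicle), duplicate wells; qRT-PCR (TaqMan, Fluidigm array) for UGT1A1 mRNA, housekeeping-normalized; bidirectional curve fit vs DMSO baseline.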

[18] = read-out: UDP glucuronosyltransferase (UGT1A6), UGT1A6 (gene 54578); assay: LTEA_HepaRG_UGT1A6: Life Technologies and Expression Analysis (LTEA) Assay for UDP glucuronosyltransferase (UGT1A6) using HepaRG (AID 2283539)
Procedure, shortened: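 qRT-PCR readout of UGT1A6 mRNA (normalized to ACTB/GAPDH/POLR2A) in differentiated HepaRG cells after 48 h chemical exposure; 8 concentrations, top 100 uM, half-log steps, 0.5% DMSO. Bidirectional curve fit relative to DMSO baseline.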

[19] = read-out: X-box binding protein 1 (XBP1), XBP1 (gene 7494); assay: LTEA_HepaRG_XBP1: Life Technologies and Expression Analysis (LTEA) Assay for X-box binding protein 1 (XBP1) using HepaRG (AID 2283540)
Procedure, shortened: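 HepaRG, 48 h exposure, 8-pt half-log CRC top 100 uM, 0.5% DMSO vehicle, duplicates. Readout: TaqMan qRT-PCR of XBP1 mRNA, housekeeping-normalised (ACTB/GAPDH/POLR2A); bidirectional fit vs DMSO baseline.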

Measured: AC50

O=C1C2CC=CCC2C(=O)N1SC(Cl)(Cl)C(Cl)Cl (stereo not given)
active: [4] 50 µM | [14] 0.676 µM | [15] 50 µM
inactive: all other assays above

CN(C(=O)Cc1cccc2occc12)[C@H]1CC[C@@]2(CCCO2)C[C@@H]1N1CCCC1
active: [15] 50 µM | [17] 22.5 µM
inactive: all other assays above

CC(C)OP(=S)(OC(C)C)SCCNS(=O)(=O)c1ccccc1
active: [2] 81.2 µM | [3] 90.4 µM | [4] 4.18 µM | [5] 89.4 µM | [7] 62.1 µM | [8] 85.7 µM | [9] 15.9 µM | [10] 92.9 µM | [11] 79.2 µM | [13] 90.9 µM | [15] 25.3 µM | [17] 83.7 µM | [18] 83 µM
inactive: [6] | [12] | TIMP1, TIMP1 (gene 7076) | [19]

Cc1cc([N+](=O)[O-])cc([N+](=O)[O-])c1O
active: [4] 7.55 µM | [8] 2.53 µM | [9] 2.58 µM | [10] 8.85 µM | [11] 8.3 µM | [12] 50 µM | TIMP1, TIMP1 (gene 7076) 50 µM | [15] 6.3 µM | [16] 89.8 µM | [17] 4.33 µM
inactive: [5] | [13] | [14]
